Experimental data from paper PMC5625161 (Pharmacology Research & Perspectives, 2017).

Target: T1, multidrug and toxin extrusion protein (MATE) 1 (SLC47A1) (Homo sapiens, UniProt Q96FL8)
T1 sequence (Q96FL8 1-570): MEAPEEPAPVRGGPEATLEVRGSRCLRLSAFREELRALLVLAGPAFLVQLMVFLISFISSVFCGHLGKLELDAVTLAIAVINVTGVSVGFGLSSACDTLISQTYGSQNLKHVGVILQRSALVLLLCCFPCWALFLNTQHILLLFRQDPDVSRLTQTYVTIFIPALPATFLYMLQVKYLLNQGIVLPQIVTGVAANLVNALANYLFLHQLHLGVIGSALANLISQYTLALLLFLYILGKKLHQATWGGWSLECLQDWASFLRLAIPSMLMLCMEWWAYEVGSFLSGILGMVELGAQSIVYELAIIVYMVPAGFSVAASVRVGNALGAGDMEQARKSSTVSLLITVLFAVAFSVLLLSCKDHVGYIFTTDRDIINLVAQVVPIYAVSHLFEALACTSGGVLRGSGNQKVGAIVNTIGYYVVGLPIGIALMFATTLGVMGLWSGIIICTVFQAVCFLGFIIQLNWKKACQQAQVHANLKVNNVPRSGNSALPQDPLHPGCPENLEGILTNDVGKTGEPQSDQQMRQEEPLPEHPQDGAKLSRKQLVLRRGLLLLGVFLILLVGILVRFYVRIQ
Assay: In vitro SLC transporter inhibition: MATE1-mediated [14C]-metformin uptake

Question: Which results are given for `CN/C(=N/CCSCc1nc[nH]c1C)NC#N` [Cimetidine, cimetidine]?
Answer: MATE1 K i (equates to IC50 (probe ≪≪ Km, assuming competitive inhibition)): 1220 nM; IC50 (≅K i) values MATE1 (probe [14C]-metformin 100 μmol/L, 1.5 min, mean ± SD of three experiments): 1220 ± 87 nM
